Measured values taken from patent publication US9708375B2, “Inhibitory polypeptides specific to WNT inhibitors” (AMGEN INC., priority 2013, dated 2017).

Assays:
[1] = target: T1, rat Sclerostin (Rattus norvegicus, UniProt Q99P67); assay: Rat Sclerostin/muLRP6-his AlphaScreen assay (untagged fusions, peptibodies); format: binding; conditions: peptibodies from primary screen
T1 sequence (Q99P67 24-213 limits assumed): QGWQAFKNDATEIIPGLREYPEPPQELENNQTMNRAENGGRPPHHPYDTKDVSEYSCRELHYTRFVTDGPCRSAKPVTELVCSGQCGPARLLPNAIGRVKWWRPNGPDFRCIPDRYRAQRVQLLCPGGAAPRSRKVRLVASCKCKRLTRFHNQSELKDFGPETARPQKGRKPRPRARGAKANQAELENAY
Protocol: All dilutions were made in the above buffer. The microtiter plate was then sealed and incubated overnight at 20° C. Inhibition was measured as a decrease in chemiluminescent signal as measured on the EnVision (Perkin Elmer) using excitation at 680 nm and emission at 520-620 nm. Selected peptides were converted to peptibodies in bulk by fusing the peptide sequence flanked by [NT] and [NT] NcoI-PstI fragments to N-terminus and C-terminus of the human Fc linked with a G5 linker in between in pTT5 vector. Converted peptibodies were expressed transiently in 293 6E cells and purified using MabSelect resin in an AKTA purification system. Purified peptibodies were screened by SOST binding ELISA, anti-SOST Ab competition ELISA, and competition AlphaScreen assay with anti-SOST Loop2 Ab and LRP6 (see paragraph [00183]) to confirm their SOST neutralizing activity. […] Fifteen peptibodies showing LRP6 inhibition activity in rat SOST/muLRP6 AlphaScreen assay were screened in WNT1 assay (see [00185]).

[2] = target: T2, SOST (Homo sapiens, UniProt Q9BQB4); assay: SOST binding ELISA (peptide phage, phagemid clones, peptibodies); conditions: 0.01 μg/ml antigen plate-coating concentration
T2 construct: avi tag (biotinylated)
T2 sequence (Q9BQB4 24-213): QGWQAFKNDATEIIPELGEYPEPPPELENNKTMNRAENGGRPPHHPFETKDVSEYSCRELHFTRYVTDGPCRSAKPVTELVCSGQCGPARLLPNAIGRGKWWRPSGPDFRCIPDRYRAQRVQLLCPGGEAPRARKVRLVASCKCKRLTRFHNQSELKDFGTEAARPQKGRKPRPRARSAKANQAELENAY
From the text: TN7 Library (diversity: 2.3×109, 2.3×10^11 pfu panned), TN8 Library (diversity: 5×109, 5×10^11 pfu panned), TN12 Library (diversity: 1.4×109, 1.4×1011 pfu panned), and Linear Library (diversity: 1.05×1010, 1.05×10^11 pfu panned) from Dyax Corp. (55 Network Drive Burlington, Mass. 01803) were subtracted with biotinylated human WISE and biotinylated avi-human ERK2 coated Streptavidin magnetic beads (Dynal), then panned against biotinylated recombinant avi-Human Sclerostin coated Streptavidin magnetic beads. Bound phages were eluted with anti-SOST Ab mixture, mLRP6-His, or TEA. Output phage pools were subjected to an additional subtraction step with biotin human WISE coated Streptavidin magnetic beads. After three rounds of panning, peptide phage clones were screened for SOST binding and counter-screened for no huWISE binding by ELISA. Neutralizing anti-SOST peptide phages were identified by competition ELISA in the presence of three neutralizing anti-SOST antibodies (AB5, 47B10, and 38B12). A total of 48 neutralizing peptides were identified from RD2 pools (see table 20) and 47 from RD3 pools (see table 21).
Selected peptides were converted to peptibodies in bulk by fusing the peptide sequence flanked by […] and […] as NcoI-PstI fragments to N-terminus and C-terminus of the human Fc linked with a G5 linker in between in pTT5 vector. Converted peptibodies were expressed transiently in 293 6E cells and purified using MabSelect resin in an AKTA purification system. Purified peptibodies were screened by SOST binding ELISA, anti-SOST Ab competition ELISA, and competition AlphaScreen assay with anti-SOST Loop2 Ab and LRP6 (see paragraph [00183]) to confirm their SOST neutralizing activity. They were counter-screened against huWISE by ELISA and AlphaScreen assay for no huWISE binding.
Phagemid clones, obtained after three rounds of panning with final antigen bead-coating concentration at 0.025 μg/ml or 0.01 μg/ml, were screened by ELISA at 0.025 μg/ml antigen plate-coating concentration and compared to the parental phagemid phage. […] A total of 16 R3.11 mutants, 31 R3.26 mutants, and 8 82.182 mutants (see table 23) were selected to be reformatted into pepti-Ig molecules.

IC50 [1] [nM] | binding to SOST by ELISA [2] | Sequence
508 | no binding | DWVCGVDIECEMW [Avimer R3.32]
153 | no binding | LPACWDDVNYESTACWLD [Avimer R3.11]
 | weaker binding | WPLCQAEWEGWYEPCMYW [Avimer R2.182]
 | no binding | YAECMDSLEQLDYNCFLP [Avimer R3.26]
